In publication PMC3953198 (Journal of medicinal chemistry, 2013):

Tested on: PC3 cells
Assay: Retraction assay: cell retraction and rounding in PC3 cells
Assay type: cell-based, human
Conditions: Fc alone

`C[C@H](CCC(=O)N[C@@H](Cc1c[nH]c2ccccc12)C(=O)O)[C@H]1CC[C@H]2[C@@H]3CC[C@@H]4C[C@H](O)CC[C@]4(C)[C@H]3CC[C@]12C` [Compound 20] was tested, and the “effect on cell morphology in the absence of ephrin treatment” value was “did not affect cell morphology”.
